Earlier results on one substance are cited in article PMC11266932, “Enhanced absorption of prenylated cinnamic acid derivatives from Brazilian green propolis by turmeric in humans and rats” (Food Science & Nutrition, 2024).

The conditions of this data set: hydrolyzed to drupanin and 3‐phenylpropionic acid; ref Yamaga et al., 2021, 2022; cited from earlier work.

Regarding Baccharin, the “detection in plasma after BGP consumption” value was “not detected”.
